Data set [1] has as its system rat putamen. Conditions: in vivo.
The test system of data set [2] is rat putamen. As to the kind of experiment: Safety and toxicity of the CT tracer IPA-HSA after CED to the rat putamen.
In data set [3] the test system is putamen. Further details: species or system rhesus monkeys. The conditions noted are these: rhesus monkey, in vivo. The procedure: The putamen in six adult rhesus monkeys (8-10 kg) was targeted for unilateral convection of IPA-BSA (n=3) or albumin-Gd-DTPA (n=3). Anesthesia was induced with ketamine (10 mg/kg), xylazine (0.5 mg/kg), and thiopental sodium (1 mg/kg). The animals were secured in a monkey stereotactic frame (Kopf Instruments, Tujunga, Calif.). A Hamilton 32-gauge metal blunt tip needle connected to a 250 μl Hamilton syringe (Thompson Instruments, Chantilly, Va.) was stereotactically inserted in the center of the right putamen (anteroposterior 15.5 mm, mediolateral 12 mm and dorsoventral 24.5 mm relative to the tympanic canals and the mid-sagittal sinus)^15. After a delay of 90 minutes, the infusion was begun at 1.0 μl/min. […]
CT and MRI images were analyzed in the MEDx software package (Sensor Systems, Inc., Sterling, Va.) running on a Sun workstation (Sun Microsystems, Inc., Palo Alto, Calif.). […] These were measured by volume segmentation using two different thresholds. Vd(1) was calculated as the volumes of distribution from CT and MRI containing at least 10% of the total increase in signal intensity due to the addition of contrast agent. A rectangular region of interest (ROI) over the infusion area was defined and in the corresponding site in the contralateral hemisphere, and the perfused maximal signal intensity (peak) and the unperfused maximal signal intensity (background) was measured. […]

In data set [4] the test system is putamen. Nature of the data set: Quantitative autoradiography (QAR) of co-infused 14C-BSA, tissue volume of distribution. Set-up: species or system rhesus monkeys. The conditions noted are these: rhesus monkey, in vivo. The procedure: ^14C-methylated BSA (American Radiolabeled Chemicals, Inc., St Louis, Mo.) was co-infused with each tracer. After sacrifice, the brain was frozen at −70° C., 20-μm thick cryostat sections on collagen-coated glass slides were obtained, and exposed on a phosphor imaging plate (Fuji Medical Systems, Stamford, Conn.) along with ^14C plastic standards (American Radiolabeled Chemicals, Inc., St. Louis, Mo.) at room temperature. After one week, the imaging plate was digitally scanned in the FujiFilm BAS5000 Bio-imaging Analyzer. The images were calibrated using a previously established correlation between ^14C plastic standards and 20-μm rat brain sections containing ^14C. […] The areas of sections encompassing the perfused region were summed and multiplied by the spacing between sections. Profiles of the ^14C-BSA were obtained across the infusion in sections corresponding to the center of the infusion.

Data set [5] has as its system pontine region of the brainstem. Nature of the data set: Convection-enhanced delivery (CED) of Gd-albumin conjugate to the primate brainstem with real-time and post-infusion MRI. In kind it is in vivo, Rhesus primates (Macaca mulatta).
The subject of a further data set is rat striatum. Nature of the data set: Toxicity of Gd-albumin conjugate after CED to the rat striatum. It counts as in vivo, rats (Sprague-Dawley). The conditions noted are these: 10 μl CED to striatum, n=12. The procedure:
All animal investigations were conducted in accordance with the National Institutes of Health guidelines on the use of animals in research, and were approved by the Animal Care and Use Committee of the National Institute of Neurological Disorders and Stroke. Adult male rats (Sprague-Dawley; n=12) weighing between 300 to 400 grams were anesthetized with isoflurane (2%) and placed in a Kopf stereotactic frame. A sagittal incision was made through the scalp to the level of the skull. A burr hole was placed over the right frontal region. A 32-gauge cannula attached to a 25 μl Hamilton syringe filled with Gd-bound albumin was stereotactically placed in the right striatum. The coordinates for placement of the cannula tip in the striatum were 0.5 mm anterior to bregma, 2.8 mm right of midline, and 5 mm below the level of the dura.
To distribute the infusate using convection, a non-compliant, gas-tight, infusion apparatus that has been described in detail previously was used (see, Lonser et al., “Direct convective delivery of macromolecules to the spinal cord,” J Neurosurg 89:616-622 (1998)). Briefly, the apparatus consists of a Harvard syringe pump that generates a continuous pressure gradient that is transmitted through a hydraulic drive that is attached to the infusate syringe plunger. Using this system, 10 μL Gd-albumin was delivered at a rate of 0.5 μL/minute into the striatum. […]

A further data set relates to brainstem. As to the kind of experiment: Safety and tissue toxicity of CED of Gd-albumin conjugate in the primate brainstem. It counts as in vivo, Rhesus primates (Macaca mulatta). The procedure: Primates were also observed daily for medical or neurologic difficulties over the study period (18 to 35 days). Each animal underwent postoperative videotaping within 48 hours of infusion completion and within 24 hours of euthanization.
After sacrifice, the animals' brains were perfused with phosphate buffered saline followed by 10% formalin. The brainstems were then cut coronally in 20-μm thick serial sections. Tissue sections through the entire brainsterm were histologically processed, and representative sections from each tissue block were stained with hematoxylin and eosin, Luxol fast blue, and Nissl. Immunohistochemistry for glial fibrillary acidic protein was performed.

The nature of data set [6]: Stability of Gd-albumin conjugate following synthesis. In kind it is physicochemical. The procedure: Gd (III) was then reacted with the HSA-1B4M at an initial 2:1 molar ratio (Gd/1B4M) using a standard solution of Gd (III) [Gd(NO3)2] at 6.42×10^−3 M. The pH of the Gd (III) solution was adjusted to 4.5 to 5.0 using 5 M NH4OAc and was added to HSA-1B4M dropwise while mixing the reaction. The mixture was allowed to proceed for 5 to 6 hrs at room temperature with rotation. The unreacted Gd (III) was removed by adding 0.5 ml of 0.1 M EDTA solution, followed by centrifugation. The final concentration of albumin was determined spectrophotometrically by measuring the absorbance at 280 nm. The percent of Gd (III) incorporation was determined by repeating the measurement of the number of chelating agents on the protein and noting the decrease due to their occupation by Gd (III). Each HSA molecule was linked to 5 Gd molecules. A stock solution of the Gd-albumin conjugate (28 mg/ml) in phosphate buffered saline was then infused into the animals. The formula of the conjugate is believed to be albumin-(Gd-1B4M)5.
While Gd is an excellent imaging moiety for MRI, it is neurotoxic in its free state. Thus, a stable construct in which Gd is permanently bound to albumin (or other protein, dendrimer or therapeutic agent) is desirable.

Regarding “IPA-HSA: Iopanoic acid conjugated to HSA, 35-45 IPA per HSA, CT tracer used in rat toxicity study”, the “Direct toxicity or immunological reaction in the brain” value with rat putamen [1] was “no evidence of direct toxicity or immunological reaction”. Also, the Behavioral changes result in the data set with rat putamen [2] (7, 14 and 39 days after single convective infusion) is listed as “no behavioral changes”. Moreover, the “Enhanced GFAP staining” value in the data set with rat putamen [2] (14 days, edge of the infusion and along the needle track) is recorded as “minimal”. For the same substance, the “GFAP staining, treated versus untreated hemisphere” value in the data set on rat putamen [2] (39 days) was “no difference in GFAP staining between the treated and untreated hemispheres”. In the data set on rat putamen [2] (animals sacrificed after 7 days), the “Edema at the infusion site (fraction of animals)” value is recorded as “⅓”. For the same substance, in the data set on rat putamen [2] (by 14 days), the “Edema at the infusion site” value is “completely resolved”. In addition, in the data set with rat putamen [2] (rat, in vivo), the “Hemorrhage at the infusion site” value was “No hemorrhage occurred” and the “Reactive astrocytic proliferation surrounding the infused area” value is on record as “no evidence of reactive astrocytic proliferation”.
With “albumin-Gd-DTPA: albumin-Gd-DTPA conjugate, 26 DTPA ligands linked to each albumin molecule, surrogate tracer for MRI”, in the data set with putamen [3], the “Mean Vd(1)” value is given as 2.55±0.44 and the “Mean Vd(2)” value is listed as 2.62±0.28. Also, the “Tissue distribution measured by QAR” value in the data set with putamen [4] amounted to 3.86±1.05.
As to “human serum albumin conjugated to 5 gadolinium chelates of 2-(p-isothiocyanotobenzyl)-6-methyldiethylenetriamine pentaacetic acid [albumin-(Gd-1B4M)5]”, the “Post-infusion day 1 increase in Vd” value in data set [5] (Animal 2, compared to Vd immediately after infusion) turned out to be 35%. Moreover, the “Homogeneity of concentration of delivered infusate in tissue” value in data set [5] (MRI line profiles through infused region) is listed as “homogeneous”. Moreover, the “Infusate visible on MRI through” value in data set [5] (post-infusion MRI) is on record as 4 post-infusion day. Moreover, the “Time by which MRI intensity of the conjugate faded to that of surrounding normal tissues” value in data set [5] (post-infusion MRI, n=2) is not above 7 post-infusion day. The Histologic analysis entry in the data set on rat striatum is on record as “normal tissue architecture with minimal gliosis limited to the immediate region surrounding the infusion cannula”. Also, in the data set with rat striatum (observation up to 60 days), the Clinical deficits entry is “None of the animals exhibited clinical deficits”. Moreover, the “Tissue architecture of brainstem sections” value in the data set on brainstem (Luxol fast blue, Nissl's, hematoxylin and eosin) is “normal tissue architecture”. Further, in the data set with brainstem (rhesus monkey, in vivo), the “Glial fibrillary acidic protein staining (gliosis)” value is listed as “minimal gliosis limited to the region immediately surrounding the cannula tract”; the “Gross examination of the brain and brainstem” value was “normal weight and no evidence of edema”. Besides, the “Neurologic deficit after infusion” value with brainstem (serial clinical examinations up to 35 days) is “No animals had a detectable neurologic deficit”. In data set [6], the “Binding of Gd in the conjugate following synthesis” value is “the Gd remained completely bound”; the “Solubility and aggregation following synthesis” value is given as “remain soluble, did not aggregate”.

The values are drawn from US7371225B2, “Method for convection enhanced delivery of therapeutic agents” (The United States of America as represented by the …, priority 2002, dated 2008).
